For experiment [1], the target named is T1, Recombinant human WEE1 protein (rhWEE1) (human, UniProt P30291).
T1 construct: Recombinant human WEE1 protein; No catalogue number is printed; source: bought: Abiocenter (Beijing, China)
Kind of experiment: BLI; FortéBio Octet Red 96; biotinylated rhp65 loaded on super streptavidin (SSA) sensors; rhWEE1 at 12.5, 25, 50, 100 and 200 nM; 25 mM HEPES, 150 mM NaCl, 0.02% Tween-20. Particulars: both partners purified. For orientation: BLI is a label-free optical method that tracks binding on a fibre tip over time.

In experiment [2] the target is T1, Recombinant human WEE1 protein (rhWEE1). Kind of experiment: SPR; Biacore T200, CM7 chip; rhWEE1 immobilised by amine coupling (10 mM acetate pH 5.0); rhp65 flowed in PBS with 5% DMSO, 30 µL/min, 25 °C; 1:1 Langmuir model, global fit. The following applies: both partners purified. For orientation: In SPR one partner is held on a chip, and binding of the other changes the refractive index at the surface.

B1: Recombinant human p65 (rhp65) (natural protein, UniProt Q04206 1-551, looked up)
chain: MDELFPLIFPAEPAQASGPYVEIIEQPKQRGMRFRYKCEGRSAGSIPGERSTDTTKTHPTIKINGYTGPGTVRISLVTKDPPHRPHPHELVGKDCRDGFYEAELCPDRCIHSFQNLGIQCVKKRDLEQAISQRIQTNNNPFQVPIEEQRGDYDLNAVRLCFQVTVRDPSGRPLRLPPVLSHPIFDNRAPNTAELKICRVNRNSGSCLGGDEIFLLCDKVQKEDIEVYFTGPGWEARGSFSQADVHRQVAIVFRTPPYADPSLQAPVRVSMQLRRPSDRELSEPMEFQYLPDTDDRHRIEEKRKRTYETFKSIMKKSPFSGPTDPRPPPRRIAVPSRSSASVPKPAPQPYPFTSSLSTINYDEFPTMVFPSGQISQASALAPAPPQVLPQAPAPAPAPAMVSALAQAPAPVPVLAPGPPQAVAPPAPKPTQAGEGTLSEALLQLQFDDEDLGALLGNSTDPAVFTDLASVDNSEFQQLLNQGIPVAPHTTEPMLMEYPEAITRLVTGAQRPPDPAPAPLGAPGLPNGLLSGDEDFSSIADMDFSALLSQISS
modifications: biotin (biotinylated with a Biotinylation Kit for the BLI assay; not for SPR)
notes: Recombinant human p65 (NF-κB p65, RELA); No catalogue number is printed; also called biotin labeled‐p65 protein; source: bought: Abiocenter (Beijing, China)
Take B1: the Kd is 13.7 nM in experiment [1] and 73.3 nM in experiment [2].

In general, Kd refers to the equilibrium constant for the complex coming apart.
